Test system: A 2780

With trans-[PtCl(Me2SO)(pyridine)2]^+ the “in vitro cytotoxicity compared with parent” value was “equivalent to the parent trans-[PtCl2(pyridine)2]”.

From US6350740B1, “Transplatinum complexes as cytotoxic and anticancer agents” (Virginia Commonwealth University, priority 2000, dated 2002)
